Molecular target: T1, Interstitial collagenase (Homo sapiens) (UniProt P03956)
T1 sequence (whole entry): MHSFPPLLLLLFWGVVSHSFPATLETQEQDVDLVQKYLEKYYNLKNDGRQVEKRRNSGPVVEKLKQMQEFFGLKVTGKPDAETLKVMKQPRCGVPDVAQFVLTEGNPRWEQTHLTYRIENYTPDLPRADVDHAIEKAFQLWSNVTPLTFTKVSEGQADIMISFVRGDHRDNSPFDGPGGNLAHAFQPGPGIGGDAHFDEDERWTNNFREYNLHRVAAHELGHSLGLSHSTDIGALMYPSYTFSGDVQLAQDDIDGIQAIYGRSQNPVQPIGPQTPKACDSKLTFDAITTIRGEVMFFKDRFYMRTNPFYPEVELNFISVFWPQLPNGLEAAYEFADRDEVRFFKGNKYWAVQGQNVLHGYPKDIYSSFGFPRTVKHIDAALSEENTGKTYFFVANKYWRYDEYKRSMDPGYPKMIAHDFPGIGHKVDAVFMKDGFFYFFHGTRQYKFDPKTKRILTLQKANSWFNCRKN
Details: 1 mM

Work on `N=C(N)NCCC[C@H](N)C(=O)Nc1ccc(Oc2ccc(S(=O)(=O)CC3CS3)cc2)cc1` (stereo partly specified) yielded an inhibition of 43%.

From ChEMBL document CHEMBL1833788, “Selective water-soluble gelatinase inhibitor prodrugs” (J Med Chem, 2011)
